Only a part is listed here, and it is no random draw. Calls of active or inactive are those of the source. The call rests on the fitted dose curve; in most records, active means well fitted activation curve with a large enough effect; inconclusive means small, poorly fitted or top-dose-only effect; inactive means flat fitted curve, though single readings scatter.
On the % scale 0 is the no-effect control and ±100 the full control effect.

Chains of the proteins cited; added tags and fusions are not shown. Lines headed by an entry give the natural chain unless they say otherwise; changes in a name come on top.
UniProt Q9HBX9: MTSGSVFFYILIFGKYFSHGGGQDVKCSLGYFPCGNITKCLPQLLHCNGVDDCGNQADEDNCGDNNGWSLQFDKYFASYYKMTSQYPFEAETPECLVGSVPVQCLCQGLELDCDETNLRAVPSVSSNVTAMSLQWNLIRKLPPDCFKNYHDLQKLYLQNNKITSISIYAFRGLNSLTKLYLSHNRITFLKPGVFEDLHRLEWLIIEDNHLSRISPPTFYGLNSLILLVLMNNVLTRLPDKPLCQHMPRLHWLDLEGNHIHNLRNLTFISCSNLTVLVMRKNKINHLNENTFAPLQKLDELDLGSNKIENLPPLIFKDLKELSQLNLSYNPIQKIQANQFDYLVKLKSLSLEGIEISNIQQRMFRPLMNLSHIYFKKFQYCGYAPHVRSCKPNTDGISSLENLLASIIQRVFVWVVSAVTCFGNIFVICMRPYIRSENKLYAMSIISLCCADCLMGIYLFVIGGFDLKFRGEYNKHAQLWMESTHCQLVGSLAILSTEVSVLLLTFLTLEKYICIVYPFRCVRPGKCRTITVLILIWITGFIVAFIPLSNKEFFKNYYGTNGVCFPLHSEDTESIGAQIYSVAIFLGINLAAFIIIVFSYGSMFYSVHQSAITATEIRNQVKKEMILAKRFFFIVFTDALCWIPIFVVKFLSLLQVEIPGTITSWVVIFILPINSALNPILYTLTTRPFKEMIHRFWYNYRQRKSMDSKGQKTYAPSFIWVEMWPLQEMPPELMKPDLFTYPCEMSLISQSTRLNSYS

The assay has as its target Relaxin receptor 1 (Homo sapiens) (UniProt Q9HBX9). Kind of assay: qHTS Assay for Agonists of the Relaxin Receptor RXFP1. Further: nearly all actives have a fitted effect of over 60% in size. The note with it: HEK293T-RXFP1 cAMP TR-FRET, 30 min, percent of porcine relaxin response, buffer zero; at 57.5 µM (top of the series). The source says: NIH Chemical Genomics Center [NCGC] NIH Molecular Libraries Probe Production Centers Network [MLPCN] MLPCN Grant: R03 MH085705-01A1 Assay Submitter (PI): Alexander Agoulnik NCGC Assay Overview: The relaxin hormone is involved in the variety of biological functions in normal tissues and diseases. The role of relaxin is well-established in female reproduction and parturition, mammary gland and endometrial development, maintenance of myometrial quiescence during pregnancy. Relaxin signaling through its G protein-coupled receptor (GPCR) RXFP1 results in ECM remodeling through regulation of collagen deposition, cell invasiveness, proliferation and overall tissue homeostasis. […] Recombinant human relaxin (rhRlx) is currently being tested in clinical trials as a protective agent in congestive heart failure, in treating severe preeclampsia, and as an anti-fibrotic agent in systemic sclerosis. Upon relaxin binding RXFP1 activation leads to the activation of adenylate cyclase (AC) via Gs. cAMP will activate PKA, which phosphorylates many signaling proteins. Thus, detection of cAMP increase is an easy and reliable indication of relaxin receptor activation. To screen for agonists of the relaxin receptor, a HEK293T cell line stably transfected with RXFP1 was used. RXFP1 activation was assayed by changes in cAMP levels as detected with a time-resolved fluorescence energy transfer (TR-FRET) cAMP detection kit.
NCGC Assay Protocol Summary: This is a cell-based assay for cAMP second messenger response to screen for agonists of the RXFP1 receptor. The assay was conducted in the presence of a PDE4 inhibitor (Ro 20174). The cells were lysed and the cAMP levels were measured with a TR-FRET cAMP kit. Presence of cAMP in the cell lysate disrupts binding between the cryptate-labeled anti-cAMP and d2-labeled cAMP pair, leading to a decrease in the TR-FRET signal. Data were normalized to the controls for basal activity (buffer only) and 100% activity (29 nM porcine relaxin). The EC50 values were determined from concentration-response data modeled with the standard Hill equation 1536-well assay protocol for the HEK293 RXFP1 cAMP assay: (1) Add 3 ul HEK293 RXFP1 cell culture. 2000 cells/well in DMEM/F12, 10% FBS, 1x Pen/Strep (dispensed offline with MultiDrop Combi). (2) Incubate 16-24 hr at 37C, 5% CO2. (3) Add 1 ul 400uM Ro20174 in DPBS, 0.05% BSA, 0.005% Tween 20. (3) Add 23 nl compounds in DMSO solution. Final concentration was 0.5 - 58 uM. (4) Incubate 30 min at 37C, 5% CO2. (5) Add 1 ul cAMP-d2 in lysis buffer (HTRF cAMP HiRange kit, CisBio). (6) Add 1 ul anti-cAMP antibody-cryptate in lysis buffer (HTRF cAMP HiRange kit, CisBio). (7) Incubate 30 min at room temperature. (6) Detect the assay plate in a ViewLux plate reader (PerkinElmer) with Ex=320 nm, Em1=615 nm and Em2=665 nm. Keywords: relaxin, RXFP1, RXFP2, G-protein coupled receptor, cAMP, agonist, high throughput screening, MLSMR, MLSCN, NIH Roadmap, qHTS and NCGC
(In general: qHTS replaces the single test concentration by a dilution series.)
In the case of `COc1ccc2nc(NP(=O)(c3ccccc3)c3ccccc3)sc2c1`, the activation is inactive: 2.48%.
Regarding `COc1cc(I)ccc1[As](=O)(O)O`, the activation was inactive: 0.584%.
As for `COc1ccc(N/C(=N/P(=O)(N2CCOCC2)N2CCOCC2)N2CCOCC2)cc1`, the figure is inactive: -1.03%; as for `COc1cc(C(=O)NCC2(N3CCOCC3)CCCCC2)cc(Cl)c1OC(C)C`, inactive: -1.65%; as for `O=[As](O)(O)c1cccnc1`, inactive: 1.16%.
As for `CS(=O)(=O)c1ccc(Cl)c(NC(=O)COC(=O)C(O)(c2ccccc2)c2ccccc2)c1`, the figure is inactive: 0.289%; as for `O=C(OC1CN2CCC1CC2)c1ccc(Cl)cc1` (stereo unspecified), inactive: 1.08%; as for `O=[As](O)(c1cccc(O)c1)c1cccc(O)c1`, inactive: -0.777%.
The same measure for `Cc1cccc(OCC(=O)OC2CN3CCC2CC3)c1` (stereo unspecified): inactive: -0.204%; for `CCCOP(=S)(Nc1nc(N)cc(=O)[nH]1)OCCC`: inactive: -0.028%.
Consider `Nc1cccc2c([As](=O)(O)O)cccc12`, for which the activation is inactive: 9.05%.
Regarding `Cc1ccc(NCCc2c([N+](=O)[O-])cc([N+](=O)[O-])cc2[N+](=O)[O-])cc1`, the activation was inactive: -1.71%.
For `COc1cc(C2NCCC3(OCCO3)C2(C)C)cc(OC)c1OC` (stereo unspecified), the activation was inactive: 4.49%.
The same measure for `CCOP(=O)(Nc1cccc2ccccc12)OCC`: inactive: 0.794%; for `CS(=O)(=O)c1cc([N+](=O)[O-])c2no[n+]([O-])c2c1`: inactive: -1.29%; for `CCOP1(=S)c2c(C)nn(CCC#N)c2N=C(c2ccccc2F)N1C` (stereo unspecified): inactive: 0.683%.
As for `O=P(Nc1nccs1)(c1ccccc1)c1nc2ccccc2s1` (stereo unspecified), the activation was inactive: -0.666%.
`O=P(Nc1nccs1)(Oc1ccccc1)Oc1ccccc1`: the activation was inactive: -2.47%.
As for `O=C(O)COc1ccc([As](=O)(O)O)cc1[N+](=O)[O-]`, the figure is inactive: -1.31%.
The same measure for `Nc1ccccc1[As](=O)(O)c1ccccc1`: inactive: 2.22%; for `NC(=O)Nc1ccc([As](=O)(O)O)cc1`: inactive: 2.34%.
The same measure for `O=[N+]([O-])c1ccc2c(c1)nnn2O`: inactive: -0.514%; for `N#CCCN(C(=O)COC(=O)C(O)(c1ccccc1)c1ccccc1)c1ccc(F)cc1`: inactive: -0.048%; for `CCOP1(=S)c2c(C)nn(CCC#N)c2N=C(c2ccc(F)cc2)N1C` (stereo unspecified): inactive: 1.01%.
As to `CN(C(=O)Cc1ccccc1)[C@@H]1CC[C@]2(CCCO2)C[C@H]1N1CCCC1`, the activation was inactive: -0.805%.
The same measure for `Cc1nn(-c2ccccc2)c2c1P(=O)(N1CCOCC1)N(C)C(c1ccccc1)=N2` (stereo unspecified): inactive: 1.9%; for `Cc1ccc(C(=O)OC2CN3CCC2CC3)cc1` (stereo unspecified): inactive: -1.05%; for `CC1CCC(C(C)C)C(OP(=O)(Nc2ccccn2)c2ccccc2)C1` (stereo unspecified): inactive: -0.418%.
As for `O=C(/C=C/c1ccccc1)OC1CN2CCC1CC2` (stereo unspecified), the figure is inactive: 2.31%.
As for `CN(C)C1(CNC(=O)c2ccc(S(C)(=O)=O)cc2)CCCCC1`, the figure is inactive: -1.56%; as for `O=P1(Nc2ncccn2)COc2ccccc2OC1`, inactive: -1.33%.
For the compound `NS(=O)(=O)c1cccc(NC(=O)COC(=O)C(O)(c2ccccc2)c2ccccc2)c1`, the activation was inactive: 0.276%.
The same measure for `O=P1(Nc2ccc(Br)cn2)COc2ccccc2OC1`: inactive: 1.93%; for `O=[As](O)(c1cccs1)c1cccs1`: inactive: -3.09%.
As for `Cc1ccc(OCC(=O)OC2CN3CCC2CC3)cc1` (stereo unspecified), the figure is inactive: 1.89%.
As for `Nc1cccc([As](=O)(O)c2ccccc2)c1`, the figure is inactive: 1.21%; as for `CCOP(=O)(Nc1ccc(C)cn1)OCC`, inactive: 0.967%; as for `CCC1=CC2Cc3nc4ccc(Cl)cc4c(N)c3C(C1)C2` (stereo unspecified), inactive: -0.107%.
With `O=P1(Nc2ccccn2)COc2ccccc2OC1`, the activation is inactive: 1.52%.
The same measure for `CCOP(=O)(NC(=NC(C)c1ccccc1)NC(C)c1ccccc1)OCC` (stereo unspecified): inactive: -0.38%.
As for `Clc1n[nH]nc1-c1nn[nH][15n]1`, the figure is inactive: -0.25%; as for `CC(C)(C)C(=O)NC(Sc1ncccn1)C(Cl)(Cl)Cl` (stereo unspecified), inactive: -0.64%; as for `COc1ccccc1CNC(=O)COC(=O)C(O)(c1ccccc1)c1ccccc1`, inactive: 1.02%.
Take `O=[As](O)(c1ccccc1Br)c1ccccc1Br`: the activation was inactive: -0.491%.
The same measure for `CN(C(=O)Cc1ccc(Cl)c(Cl)c1)[C@@H]1CCCC[C@H]1N1CCCC1`: inactive: 2.41%.
For the compound `CC(C)/C=N\N=C(\N)N[N+](=O)[O-]`, the activation was inactive: -1.36%.

The record behind these values is PubChem BioAssay AID2676 (National Center for Advancing Translational Sciences (NCATS), 2010).
